Assay results published in BindingDB's records for doi:10.1016/0006-3223(89)90217-5 (Stanford University, 1989).

Chains of the proteins cited; added tags and fusions are not shown. Lines headed by an entry give the natural chain unless they say otherwise; changes in a name come on top.
UniProt P28335: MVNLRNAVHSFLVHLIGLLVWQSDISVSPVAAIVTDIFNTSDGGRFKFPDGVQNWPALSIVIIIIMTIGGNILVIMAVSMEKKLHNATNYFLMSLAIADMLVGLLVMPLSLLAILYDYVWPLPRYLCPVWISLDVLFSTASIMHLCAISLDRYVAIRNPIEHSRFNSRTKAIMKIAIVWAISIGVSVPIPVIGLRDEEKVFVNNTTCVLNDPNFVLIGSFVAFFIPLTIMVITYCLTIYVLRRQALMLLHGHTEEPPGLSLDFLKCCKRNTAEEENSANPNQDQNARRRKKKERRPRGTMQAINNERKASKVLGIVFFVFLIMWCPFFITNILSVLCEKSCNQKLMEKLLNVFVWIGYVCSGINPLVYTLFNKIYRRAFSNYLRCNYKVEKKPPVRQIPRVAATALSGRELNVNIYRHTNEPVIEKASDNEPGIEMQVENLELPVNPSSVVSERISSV

Biological target: 5-hydroxytryptamine receptor 2C (Homo sapiens, UniProt P28335)

**Q.** `Clc1cccc(N2CCNCC2)c1` [mCPP] was tested. Which Ki did it give?
**A.** Its Ki is 360 nM.
